Reference: US6656930B2, “Aralkyl diazabicycloalkane derivatives for CNS disorders” (The United States of America as represented by the …, priority 1992, dated 2003)
pKi: −log10 of the molar value.

Sequences of proteins named here, by UniProt entry; tags and fusion partners are left off.
UniProt Q60492, whole entry: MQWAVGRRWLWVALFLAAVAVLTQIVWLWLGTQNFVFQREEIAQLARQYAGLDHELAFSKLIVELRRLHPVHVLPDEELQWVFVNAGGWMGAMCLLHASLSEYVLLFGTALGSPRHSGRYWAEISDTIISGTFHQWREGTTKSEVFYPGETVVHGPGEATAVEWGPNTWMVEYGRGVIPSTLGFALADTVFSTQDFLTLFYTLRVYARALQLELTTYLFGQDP

These substances were tested against T1, sigma receptor (Cavia porcellus, UniProt Q60492) (assay: Radioreceptor assay: displacement of [3H](+)-pentazocine from guinea pig brain membranes). Conditions: apparent Ki from IC50 by Cheng-Prusoff; 3 nM [3H](+)-pentazocine; crude P2 membrane fraction of guinea pig brain; 120 min at 25° C., pH 8.0; read-out: Ki ([3H] (+)-Pent).
T1 construct: Crude P2 membrane fractions were prepared from frozen (−80° C.) guinea pig brains (Pel-Freeze, Rogers, AK), minus cerebella; tissue Pel-Freeze, Rogers, AK; host or cells: guinea pig brain minus cerebella, crude synaptosomal (P2) membrane fraction
Assay type: binding
“(R)-2-[2-(3,4-Dichlorophenyl)ethyl]-2,5-diazabicyclo[3.0.4]nonane [Compound of Ex. 12]” gave a pKi of 8.44.
With “(S)-2-[2-(3,4-Dichlorophenyl)ethyl]-2,5-diazabicyclo[3.0.4]nonane [Compound of Ex. 6]” the pKi was 6.01.
Substance “2-[2-(3,4-Dichlorophenyl) ethyl]-2,5-diazabicyclo[4.0.4]decane [Compound of Ex. 17]” has a pKi of 9.11.
